Literature values as cited in patent US10028966B2 (Avalyn Pharma Inc., priority 2014, dated 2018).

Test system: patients carrying the ALK fusion gene
Details: nausea, vomiting, or diarrhea; cited from earlier work

## C[C@@H](Oc1cc(-c2cnn(C3CCNCC3)c2)cnc1N)c1c(Cl)ccc(F)c1Cl [Crizotinib]
  patients with at least one side effect: Approximately 50%
